Screening data: PubChem, Broad Institute
The list is not random: actives were taken first. Their share in the collection is about 1.2%.
Cneo AK release: Cryptococcus neoformans lysis via adenylate kinase release; hit rate 0.2% among 360,000; lysis activity, % at 15 µM; AID 651654; C. neoformans lysis, adenylate kinase release luminescence, 4 h; normalised: neutral wells 0, clomiphene wells 100;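 active means mean lysis activity across replicates of at least 80%, whatever share of replicates individually reach that level; inactive means mean lysis activity below 80%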
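Material: C. neoformans cells | Amount: Yeast cell density of 5 × 10^6 cells/mL | Medium: Fresh YPD growth medium | Dosing: Single dose | Times: Static 4 h at 37 °C with compound, 1 h detection | Detection: AK luminescence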
UUG fidelity: modulators of start codon recognition fidelity in yeast; activity score, % at 18.7 µM; actives 0.13% (n = 350,000); S. cerevisiae UUG-firefly luciferase reporter, luminescence/redox ratio;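 active = replicate mean at a twofold rise or more, about +100% in these data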;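 note: firefly luciferase made from a UUG start codon reports start codon fidelity; reporter light over untreated wells divided by growth signal over untreated wells; some hits fall short of that in this replicate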
Statin myotox sup: protects C2C12 myotubes from simvastatin toxicity; AID 602340; hit rate 0.78% among 330,000; rescue of ATP level, % at 7.49 µM; ATP luminescence, 48 h; scaled: DMSO 0, geranylgeraniol control 100;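 active means mean ATP rescue above about 67%, or every replicate alone reaching that limit, limit read from the data, passing the limit was not always enough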;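 further: myotubes were challenged with 10 µM simvastatin during compound exposure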
miR122 inh: miR-122 inhibition in Huh7 cells. Huh7 miR-122 Renilla luciferase sensor, 48 h; neutral wells = 0, positive control = 100. activation (reporter increase), % at 12.5 µM. hit rate 0.3% among 340,000;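 active means mean replicate activation score at least 90 and every replicate individually at or above 90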;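 further: higher luciferase means less miR-122 activity so hits act as miR-122 inhibitors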
Numbers stand for hits; - = inactive; . = not tested or not shown; [ ] = another dose, or the depositor's remark.

SMILES	Cneo AK release	UUG fidelity	Statin myotox sup	miR122 inh
COCC(C)NS(=O)(=O)c1ccc(C)cc1 (centres undefined)	-	-	141	-
CSCc1c(C(=O)NC2CCCc3ccccc32)oc2ccccc12 (centres undefined)	-	-	102	-
CCN(CC)S(=O)(=O)c1ccc2oc(C(=O)NC3CCCc4ccccc43)c(C)c2c1 (centres undefined)	-	-	-	.
O=C([C@H]1[C@H](CO)[C@H]2Cn3c(cccc3=O)[C@H]2N1CCC(F)(F)F)N1CCCCC1	93	.	-	.
C[C@H]1CN([C@@H](C)CO)C(=O)c2cccc(NS(C)(=O)=O)c2O[C@@H]1CN(C)Cc1ccc(Cl)c(Cl)c1	-	.	-	-
CCc1nnc(NC(=O)Cn2c(=O)oc3ccccc32)s1	-	-	140	-
CCC(=O)Nc1ccc2c(c1)C(=O)N(C)C[C@@H](OC)[C@H](C)CN(C(=O)CN1CCOCC1)[C@H](C)CO2	.	.	-	-
Cc1sc2nc3ccc(N4CCCCC4)nn3c(=O)c2c1C	-	-	113	-
CO[C@@H]1CN(C)C(=O)c2ccc(NC(C)=O)cc2OC[C@H](C)N(C(=O)c2ccncc2)C[C@H]1C	-	-	-	-
COc1ccc(-c2nc3ccccn3c2NC2CCCCC2)cc1SC1CCCCC1	-	-	-	115
COc1cc(-c2nc3ccccn3c2NCc2ccccc2)ccc1SC1CCCCC1	-	-	-	.
O=C(C[C@H]1C[C@@H]2c3cc(NC(=O)Cc4ccncc4)ccc3O[C@@H]2[C@H](CO)O1)NCc1ccccn1	-	.	-	-
O=C(Cn1ccc2ccccc2c1=O)NCCC(=O)N1CCN(C(=O)c2ccco2)CC1	-	-	78	-
CN1CCN(C(=O)CCNC(=O)Cn2ccc3ccccc3c2=O)CC1	-	-	-	-
COc1ccccc1-n1cnc2cc(NCc3ccccc3O)ccc21	-	-	-	-
COc1ccccc1-n1cnc2cc(NCc3ccco3)ccc21	-	-	73	-
C[C@@H]1CN([C@H](C)CO)C(=O)c2cc(/C=C/c3ccccc3)cnc2O[C@@H]1CN(C)S(=O)(=O)c1cn(C)cn1	-	-	-	-
C[C@H](CO)N1C[C@H](C)[C@@H](CN(C)C)Oc2cc(-c3cncnc3)ccc2S1(=O)=O	-	-	-	-
C/C=C/c1ccc([C@@H]2[C@@H](C#N)N(S(=O)(=O)c3cccc(F)c3)[C@@H]2CO)cc1	109	.	-	.
N#C[C@@H]1[C@@H](c2ccccc2)[C@H](CO)N1S(=O)(=O)c1ccc(-c2ccccc2)cc1	-	-	88	.
N#C[C@H]1[C@@H](c2ccc(-c3ccc(F)cc3)cc2)[C@H](CO)N1C(=O)Cc1ccccc1	-	-	-	.
N#C[C@@H]1[C@@H](c2ccc(-c3ccc(F)cc3)cc2)[C@H](CO)N1C(=O)Cc1ccccc1	-	-	75	.
C[C@H](CO)N1C[C@H](C)[C@@H](CN(C)C(=O)NC2CCCCC2)OCCCC[C@H](C)Oc2ccc(NC(=O)Nc3ccc4c(c3)OCO4)cc2C1=O	-	-	.	-
C[C@@H]1CN([C@@H](C)CO)C(=O)c2ccccc2-c2ccccc2CO[C@H]1CN(C)C(=O)c1ccccc1	-	-	.	.
Cc1ccccc1-c1cnc2c(c1)C(=O)N([C@H](C)CO)C[C@H](C)[C@@H](CN(C)CC1CCCC1)O2	-	-	-	-
SMILES	Cneo AK release	UUG fidelity	Statin myotox sup	miR122 inh
O=S1(=O)C=C(N2CCCCC2)c2ccccc21	-	-	108	-
C[C@H]1CN([C@@H](C)CO)C(=O)Cc2cc(NC(=O)C3CCCCC3)ccc2O[C@H]1CN(C)Cc1ccc(-c2ccccc2)cc1	-	-	-	-
C[C@H](CO)N1C[C@H](C)[C@H](CN(C)Cc2ccc(-c3ccccc3)cc2)Oc2ccc(NC(=O)C3CC3)cc2CC1=O	-	-	-	-
C[C@@H]1CN([C@@H](C)CO)C(=O)Cc2cc(NC(=O)C3CCCCC3)ccc2O[C@H]1CN(C)Cc1ccc(-c2ccccc2)cc1	-	-	137	-
C[C@H]1CN([C@@H](C)CO)C(=O)Cc2cc(NC(=O)C3CC3)ccc2O[C@H]1CN(C)Cc1ccc(-c2ccccc2)cc1	112	-	-	-
CCOc1cccc(CNc2ccc(O)cc2)c1OCc1ccccc1Cl	-	-	108	-
Cc1ccc(NS(=O)(=O)c2ccc(-c3ccc(=O)[nH]n3)o2)cc1Cl	-	-	137	-
COc1ccc(S(=O)(=O)Nc2ccc3c(c2)C(=O)N([C@@H](C)CO)C[C@H](C)[C@@H](CN(C)C(=O)Nc2ccc(F)cc2)OCCCC[C@H](C)O3)cc1	-	-	-	-
C=C[C@@H]1c2c(F)cccc2N(S(=O)(=O)c2ccc(C)cc2)[C@H](c2ccc(C(=O)OC)cc2)C1(C#N)C#N	-	-	126	-
COC(=O)c1ccccc1COn1c(=O)c(C)[n+]([O-])c2ccccc21	-	-	105	-
COC(=O)c1ccc(COn2c(=O)c(C)[n+]([O-])c3ccccc32)cc1	-	-	-	-
CC(C)CC(c1nnnn1C1CCCC1)N1CCN(c2ccccc2F)CC1 (centres undefined)	-	-	117	-
CC(C)(C)n1nnnc1C(c1cccnc1)N1CCN(c2ccccc2F)CC1 (centres undefined)	.	.	120	-
CC(C)(C)n1nnnc1C(c1cccnc1)N1CCN(c2ccccc2)CC1 (centres undefined)	.	.	-	-
C[C@@H]1CN([C@@H](C)CO)C(=O)c2cc(N(C)C)ccc2O[C@@H](C)CCCCO[C@H]1CN(C)Cc1ccccc1	-	-	-	-
Cc1ccc(C2CCN(C(=S)NC3CCCCC3)C2)cc1 (centres undefined)	119	-	-	-
O=C(NC1CCCCC1)N[C@H]1C=C[C@@H](CC(=O)N2CCOCC2)O[C@@H]1CO	93	.	-	.
CCC(=O)N[C@@H]1C=C[C@H](CC(=O)NCC2CCCCC2)O[C@H]1CO	87	-	-	-
CN(C)C(=O)C[C@H]1C[C@@H]2c3cc(NC(=O)NC4CCCCC4)ccc3O[C@@H]2[C@H](CO)O1	-	-	-	-
CC(C)NC(=O)NCC[C@H]1CC[C@H](NC(=O)CN(C)C)[C@H](CO)O1	102	-	-	-
CC(C)NC(=O)NCC[C@@H]1CC[C@@H](NC(=O)CN(C)C)[C@@H](CO)O1	97	-	-	-
CN(C)CC(=O)N[C@H]1CC[C@@H](CCNC(=O)C2CCCC2)O[C@H]1CO	-	-	-	-
CN(C)CC(=O)N[C@H]1CC[C@@H](CCNC(=O)C2CCC2)O[C@H]1CO	-	-	-	.
COc1ccc(S(=O)(=O)N(C(C)=O)c2ccc3oc(=O)sc3c2)cc1	-	-	87	-
Brc1ccc(-c2nn3c(Cc4ccccc4)nnc3s2)o1	-	-	72	-
Fc1ccc(CSc2nnc(CN3CCOCC3)n2-c2ccccc2)c(Cl)c1	-	-	103	-
CCOC(=O)N1CCN(C(=O)CNCc2cccs2)CC1	-	-	93	-
C[C@H](CO)N1C[C@H](C)[C@@H](CN(C)Cc2ccc(C(F)(F)F)cc2)Oc2c(NC(=O)c3cnccn3)cccc2C1=O	-	-	-	114[16.7 µM]
